In the library only some 3.7% were active in any assay of this set; here they are far more common.
TCR activator – T cell receptor activation; primary human leukocytes, anti-CD3, IL-2 HTRF, 48 h; Potency, µM (titrated, usually from 9.22 µM), inactives show at the top dose activation of IL-2 secretion, usual class: activators; 330,000 tested, under 10 active; also: % of control where 0% means no effect
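Readout: HTRF IL-2, Eu-cryptate/d2 antibody pair, 320nm excitation, 665nm emission. Stimulus: a-CD3 beads, no co-stimulation. Cells: primary human leukocytes. Exposure: 48 hr with compound.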
Nrf2 block – blocks Nrf2 signaling | A549 ARE-Fluc reporter, luciferase luminescence, 18-24 h | Potency, µM (highest dose often 46 µM), inactives show at the highest dose activity change, negative = inhibition, actives largely listed as inhibitors | 360,000 compounds, 2.1% hits | AID 504444; also: potency is read from the fitted curve at half-maximal effect; % is scaled to controls: 0 for no effect and ±100 for the full control effect; nearly all actives have a fitted effect of over 60% in size
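Quantitative HTS in A549 cells stably bearing an antioxidant response element-firefly luciferase construct. Inhibition of Nrf2-driven transcription was scored by luminescence after 18-24 h of compound exposure at 37 °C.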
miR-21 FLuc – miR-21 reporter, rising signal | HeLa miR-21 FLuc reporter, luciferase, 48 h | Potency, µM (top dose mostly 38.3 µM), inactives show at the top dose reporter change, positive = more light | 340,000 tested, under 10 active | AID 2288; active = well fitted rising curve with a large enough effect; inconclusive = small, poorly fitted or top-dose-only effect; inactive = no such curve, though single readings can be large or run the other way;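 further: % of control where 0% means no effect; miR-21 action dims this reporter so a rising signal means less miR-21 action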
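HeLa miR-21-FLuc reporter line, endogenous miR-21; 2000 cells/well in DMEM/10% FBS; compound titration up to ~40uM final, 48 h, 37 degree Celsius; luciferase detection reagent, 15 min lysis, CCD luminescence.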
ClpP mod – qHTS Assay for Activators of ClpP; purified B. subtilis ClpP, FRET peptide cleavage, 20 min; 340,000 compounds, 1.9% hits; Potency, µM (series often up to 57.5 µM), without a hit: at the top dose activity change, negative = active; active = well fitted falling curve with a large enough effect; inconclusive = small, poorly fitted or top-dose-only effect; inactive = no such curve, though single readings can be large or run the other way; also: potency is read from the fitted curve at half-maximal effect; the source files actives as falling curves though it sought activators and does not explain the sign; nearly all actives have a fitted effect of over 65% in size
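Buffer: 100 mM Tris/HCl pH8, 100 mM KCl, 0.05% low protease BSA, 2.5% glycerol, 0.01% Tween-20. ClpP 10 microg/mL final; 20 min RT; delta FRET normalized to ADEP and DMSO controls.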
A549 viability – kills or reduces viability of A549 cells in Nrf2 counter-screen; A549 ARE-Fluc cells, CellTiter-Fluor viability, 18-24 h; Potency, µM (highest dose often 46 µM), inactives show at the top dose activity change, negative = cytotoxicity, actives largely listed as inhibitors; 390,000 compounds, 0.16% hits; also: potency is read from the fitted curve at half-maximal effect; % is scaled to controls: 0 for no effect and ±100 for the full control effect
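A549 ARE-Fluc cells in 5% FBS OPTI-MEM, 5000 cells/well, rested 2 h then exposed to compounds in concentration-response for 18-24 h at 37 °C. Viability by CellTiter-Fluor fluorescence (Ex 405/Em 525) after 30 min; luciferase luminescence (BugLite, 15 min, RT) read afterwards.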
Nrf2 activator – activators of Nrf2 (ARE) signaling; AREc32 ARE-luciferase reporter (MCF7-derived line), luminescence, 24 h; 410,000 compounds, 0.31% hits; Potency, µM (top dose mostly 46.1 µM), without a hit: top-dose activation, hits mostly activators; also: potency is read from the fitted curve at half-maximal effect; % of control where 0% means no effect; nearly all actives have a fitted effect of over 65% in size
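For detection, Steady-Glo was added and plates sat 30 min at RT; before that, AREc32_Fluc cells grown overnight in OPTI-MEM/5% FBS had been treated with 23 nL compound for 24 hr at 37 deg C.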
Active calls of the source: *; ? = inconclusive; . = no result; [ ] = dose if it differs, or a comment. Unless noted, calls follow the shape of the dose curve; as a rule, active = well fitted curve in the direction sought with a large enough effect; inconclusive = small, poorly fitted or top-dose-only effect, or another doubt; inactive = no such curve, though single readings can be large; an effect the other way counts as inactive or inconclusive.

SMILES | TCR activator | Nrf2 block | miR-21 FLuc | ClpP mod | A549 viability | Nrf2 activator
COc1ccccc1N1C(=O)c2ccccc2NC1c1ccncc1 (centres undefined) | -1.5% | . | -3.8% | ? | -5.8% | -0.8%
COc1ccc(C2Nc3ccccc3C(=O)N2c2ccccc2)cc1COc1ccccn1 (centres undefined) | -0.7% | 5.3% | -33.0% | 28.2µM* | -1.8% | 2.1%
CCC1COCCS(=O)(=O)N1Cc1ccc(F)cc1 (centres undefined) | 4.9% | -0.6% | -1.1% | -0.5% | -1.8% | 0.1%
COc1cc2c(C(=O)N3CCOCC3)c(CSc3ccccc3)n(C)c2cc1Br | -2.8% | 25.9µM* | 14.8% | -2.7% | ? | 2.0%
COc1cc2c(C(=O)N3CCN(C)CC3)c(C)n(-c3ccccc3)c2cc1Br | 5.3% | 1.1% | -10.2% | 1.2% | -2.9% | 0.0%
CC(Oc1ccccc1)C(=O)NNC(=O)c1ccccn1 (centres undefined) | -0.3%[46.1 µM] | ? | ? | 1.6% | -10.5% | -0.5%
C/C(=N\NC(=O)C(C)Oc1ccc([N+](=O)[O-])cc1)c1ccccn1 (centres undefined) | 1.9% | 6.51µM* | 19.7% | -0.7% | ? | 22.5%
O=C(NCCc1ccco1)C(=O)NCC1CCCN1S(=O)(=O)c1ccccc1 (centres undefined) | 13.9% | 9.4% | . | . | -12.7% | 0.5%
O=C(Nc1cccc2ccccc12)N1CCOCC1 | -1.2% | -1.2% | -4.3% | 25.1µM* | 1.2% | -0.2%
CCn1nc(C(=O)Nc2cccc3ccccc23)c(Cl)c1Cl | 0.4% | 10.5% | -9.1% | -1.4% | 8.7% | 7.08µM*
O=C(O)c1ccccc1NC(=O)N1CCOCC1 | 4.1% | 13.4% | 0.2% | . | -2.9% | 0.0%
O=C(Nc1cccc2ccccc12)N1CCN(c2ccc(F)cc2)CC1 | 19.7% | 3.5% | 0.8% | -24.5% | 0.4% | -0.4%
CCn1nc(C(=O)Nc2ccccc2C)c(Cl)c1Cl | -21.3% | 4.5% | -16.9% | 0.4% | -4.6% | 4.3%
CCN1CCN(C(=O)Nc2cccc3ccccc23)CC1 | -2.7% | 16.9% | -0.7% | 11.2µM* | ? | -0.1%
CN1CCN(C(=O)Nc2cccc3ccccc23)CC1 | . | 3.1% | -2.8% | 15.8µM* | -15.1% | 3.5%
C(=C\c1ccnc2ccccc12)/c1ccc2ccccc2n1 | . | . | . | 4.6% | . | .
Cc1ccc(C)c(N2CCN(C(=O)CCS(=O)(=O)c3ccc4c(c3)CC(=O)N4C)CC2)c1 | . | ? | 8.8% | -0.9% | 4.9% | 2.1%
CCCCn1c(N)c(N(CCOC)C(=O)c2cc(-c3ccc(OC)cc3)nc3ccccc23)c(=O)[nH]c1=O | 1.6% | ? | . | 11.2µM* | -3.1% | 2.0%
CCCCn1c(N)c(N(CCOC)C(=O)c2cc(-c3ccc(C)cc3)nc3ccccc23)c(=O)[nH]c1=O | 4.1% | 18.8% | . | ? | 12.7% | 7.2%
COCCC(=O)N1CCC(Oc2ccc(C(=O)N(C)CCCC3CCCC3)cc2)CC1 | 0.8% | ? | 1.6% | -1.7% | -13.1% | -0.1%
COCCC(=O)N1CCC(Oc2ccc(C(=O)NCCCC3CCCC3)cc2)CC1 | 0.3% | -14.8% | 4.1% | 31.6µM* | ? | 4.1%
Cc1ccc(C(=O)COC(=O)CCNS(=O)(=O)c2ccccc2F)cc1 | . | 13.2% | . | -0.5% | -2.1% | -0.3%
Cc1csc2c(N3CCN(C(=S)Nc4ccc(F)cc4F)CC3)ncnc12 | 1.7% | 18.4µM* | 2.7% | ? | -5.0% | 0.6%
Cc1csc2ncnc(N3CCN(C(=O)Nc4ccc(OC(F)(F)F)cc4)CC3)c12 | -8.0% | 23.1µM* | 23.1% | 0.5% | ? | 3.7%
Cc1csc2c(N3CCN(C(=O)Nc4ccccc4)CC3)ncnc12 | 3.3% | 8.2µM* | 0.8% | -2.0% | -2.6% | 4.0%
Cc1cc(C)c(NC(=S)N2CCN(c3ccc([N+](=O)[O-])cn3)CC2)cc1C | -2.4% | ? | -5.6% | 1.8% | 0.8% | -0.5%

Some of the entries above, reformatted:
COCCC(=O)N1CCC(Oc2ccc(C(=O)N(C)CCCC3CCCC3)cc2)CC1
  TCR activator: 0.8%
  Nrf2 block: ?
  miR-21 FLuc: 1.6%
  ClpP mod: -1.7%
  A549 viability: -13.1%
  Nrf2 activator: -0.1%

COCCC(=O)N1CCC(Oc2ccc(C(=O)NCCCC3CCCC3)cc2)CC1
  TCR activator: 0.3%
  Nrf2 block: -14.8%
  miR-21 FLuc: 4.1%
  ClpP mod: 31.6µM*
  A549 viability: ?
  Nrf2 activator: 4.1%

Cc1ccc(C)c(N2CCN(C(=O)CCS(=O)(=O)c3ccc4c(c3)CC(=O)N4C)CC2)c1
  TCR activator: .
  Nrf2 block: ?
  miR-21 FLuc: 8.8%
  ClpP mod: -0.9%
  A549 viability: 4.9%
  Nrf2 activator: 2.1%
